Bioassay records: PubChem, several laboratories
Hits are enriched below; roughly 1.2% of the tested compounds scored in any of these assays.
Pemphigus Ab inh: human desmoglein-3 autoantibody binding inhibition; P32926; DSG3-coupled beads, scFv-anti-DSG3-GFP binding, flow cytometry; stronger effect = lower value; binding (percent of control), % at 10 µM; actives 0.48% (n = 310,000); AID 588358;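 active = binding more than 3 SD below its plate's average and above zero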;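 note: hits lower antibody fragment binding to DSG3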
Rce1 inh: blocks yeast Ras-converting enzyme | yeast membranes, quenched prenylated peptide cleavage fluorescence | actives 0.27% (n = 290,000) | calls only;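 active = fall in fluorescence gain of 50% or more versus controls, with final raw signal at or below 3038400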
Yeast UUG start: alters start codon recognition fidelity in yeast. S. cerevisiae UUG-firefly luciferase reporter, luminescence/redox ratio. activity score, % at 18.7 µM. 0.13% of 350,000 active. AID 602363;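 active = replicate mean at a twofold rise or more, about +100% in these data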;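 also: firefly luciferase made from a UUG start codon reports start codon fidelity; reporter light over untreated wells divided by growth signal over untreated wells; some hits fall short of that in this replicate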
TbMetRS inhib: Trypanosoma brucei MetRS inhibition; purified T. brucei MetRS, ATP depletion, Kinase-Glo luminescence; inhibition, % at 11.9 µM; actives 0.4% (n = 360,000);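 active = inhibition above a per-plate cutoff of the control wells' mean inhibition plus 3 SD, cut at about 5.5% in these data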
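Test system: purified T. brucei MetRS enzyme. Also added: ATP, methionine and E. coli bulk tRNA substrates. Compound: 11.9 µM single point. Schedule: 15 min enzyme-compound preincubation, 2 h reaction, 10 min detection, 25 °C. Signal: luciferase luminescence of residual ATP, Kinase-Glo. Evaluation: percent inhibition versus plate control medians. Controls: DMSO wells, low control.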
Arr AP2 block: human beta-arrestin and AP2 interaction inhibition. FITC-arrestin peptide / GST-AP2 beads, flow cytometry; AP2 beta2 appendage carries R879A mutation. inhibition, % at 10 µM. actives 0.31% (n = 340,000);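 active = inhibition above a set limit, near 3 SD of compounds lacking own fluorescence, cut at about 54% in these data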
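Material – GST-tagged AP2 beta2-adaptin appendage (R879A) on 4 µm glutathione beads · Probe or stimulus – fluorescein-tagged arrestin peptide at 50 nM final · Timing – 12 min plus 1 h, RT · Detection – bead flow cytometry, FITC channel · Read-out basis – inhibition as reduced fluorescein signal on beads, percent · Medium – PBS plus Tween 20 (0.05%) and BSA (0.1%)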
Tb MetRS conf: confirmation of Trypanosoma brucei MetRS inhibitors. shares compounds with TbMetRS inhib. T. brucei MetRS enzyme, luminescence (ATP depletion). inhibition, % at 11.9 µM. actives 93% (n = 1,400). AID 624412; in the data active = inhibition above about 7%
Jurkat tox: kills Jurkat cells in T. brucei MetRS counterscreen. shares compounds with TbMetRS inhib. Jurkat cells viability, ATP luminescence. inhibition, % at 8.3 µM. actives 12% (n = 1,400); in the data active = inhibition above about 15%
Tb MetRS inh FP: inhibits T. brucei methionyl tRNA synthetase in orthogonal FP test | shares compounds with TbMetRS inhib | purified T. brucei MetRS, fluorescence polarization | inhibition, % at 11.9 µM | actives 44% (n = 1,400) | AID 651607; in the data active = inhibition above about 17%
Large screens that a line does not name were inactive (follow-up assays come after a bar, where they were run).

Cc1nccc2c1[nH]c1ccc(Br)cc12	TbMetRS inhib 9.0 | Tb MetRS conf 17.1 | Jurkat tox inactive | Tb MetRS inh FP inactive
COc1ccc2c(c1)[nH]c1c(C)nccc12	none (no result: Rce1 inh)
COc1ccc(C#Cc2ccc([C@H]3[C@@H](CO)N4CCCCN(C(=O)Cc5ccncc5)C[C@@H]34)cc2)cc1	none (no result: Pemphigus Ab inh, Rce1 inh, TbMetRS inhib, Arr AP2 block)
N#Cc1cc2c(nc1SCC(=O)Nc1ccc(Cl)cc1)C1CCN2CC1	TbMetRS inhib 9.2 | Tb MetRS conf 15.1 | Jurkat tox 19.6 | Tb MetRS inh FP inactive
COc1ccc(C#Cc2ccc([C@H]3[C@H]4CN(C(=O)Cc5cccnc5)CCCCN4[C@H]3CO)cc2)cc1	none (no result: Pemphigus Ab inh, Rce1 inh, TbMetRS inhib, Arr AP2 block)
NC(=O)OCCSc1nnc(-c2cccc(C(N)=S)c2)o1	TbMetRS inhib 16.1 | Tb MetRS conf 10.2 | Jurkat tox inactive | Tb MetRS inh FP inactive
CCCC(C)C1(CC)C(=O)NC(=Nc2ccccc2)NC1=O (configuration not stated)	TbMetRS inhib 8.7 | Tb MetRS conf 17.6 | Jurkat tox inactive | Tb MetRS inh FP inactive
CCCC1(CCC)C(=O)NC(=Nc2ccccc2)NC1=O	TbMetRS inhib 12.0 (no result: Yeast UUG start) | Tb MetRS conf 18.7 | Jurkat tox inactive | Tb MetRS inh FP inactive
CCCC(C)C1(CC)C(=O)NC(=Nc2ccc(F)cc2)NC1=O (configuration not stated)	none
COC(=O)[C@H]1[C@H](CO)[C@H]2Cn3c(ccc(/C=C/c4ccccc4)c3=O)[C@@H]1N2C(=O)C1CCC1	none (no result: Pemphigus Ab inh, Rce1 inh, TbMetRS inhib, Arr AP2 block)
CCOCCCn1c(N)c(C(=O)Nc2sc3c(c2C(=O)OC)CCCC3)c2nc3ccccc3nc21	TbMetRS inhib 8.3 | Tb MetRS conf inactive | Jurkat tox inactive | Tb MetRS inh FP inactive
CCOC(=O)c1c(NC(=O)c2c(N)n(CCCOC)c3nc4ccccc4nc23)sc2c1CCCC2	none
CCn1nc(/C=C/c2ccccc2)nc2c(=O)n(C)c(=O)nc1-2	TbMetRS inhib 17.6 (no result: Pemphigus Ab inh, Yeast UUG start) | Tb MetRS conf 36.5 | Jurkat tox 56.7 | Tb MetRS inh FP inactive
Cc1ccc(NC(=O)CN2C(=O)CN=C(c3ccccc3)c3cc(Cl)ccc32)cc1	TbMetRS inhib 58.7 | Tb MetRS conf 80.6 | Jurkat tox inactive | Tb MetRS inh FP 53.0
CN(C)c1ccc(NC(=O)CN2C(=O)CN=C(c3ccccc3)c3cc(Cl)ccc32)cc1	none
COc1ccc(C#Cc2ccc([C@@H]3[C@H]4CN(C(=O)Cc5ccncc5)CCCCN4[C@H]3CO)cc2)cc1	none (no result: Pemphigus Ab inh, Rce1 inh, TbMetRS inhib, Arr AP2 block)
O=C(Cc1cccnc1)N1CCCCN2[C@H](CO)[C@@H](c3ccc(C#CC4CCCC4)cc3)[C@H]2C1	none (no result: Pemphigus Ab inh, Rce1 inh, TbMetRS inhib, Arr AP2 block)
Clc1ccc(COC(Cn2ccnc2)c2ccc(Cl)cc2Cl)c(Cl)c1 (configuration not stated)	TbMetRS inhib 42.5 | Tb MetRS conf 58.4 | Jurkat tox inactive | Tb MetRS inh FP 46.1
O=C(Cc1cccnc1)N1CCCCN2[C@@H](CO)[C@@H](c3ccc(/C=C/c4ccccc4)cc3)[C@@H]2C1	none (no result: Pemphigus Ab inh, Rce1 inh, TbMetRS inhib, Arr AP2 block)
O=C1NC(=O)C(=Cc2ccc(N3CCN(C(=O)c4ccccc4)CC3)c([N+](=O)[O-])c2)C(=O)N1	TbMetRS inhib 12.9 (no result: Yeast UUG start) | Tb MetRS conf 18.5 | Jurkat tox inactive | Tb MetRS inh FP inactive
